## Ab-14 light chain CDR variants: yeast mating affinities

From the AlphaSeq antibody data of Li et al. 2023 (doi:10.1038/s41467-023-39022-2), copy in the FLAb collection.

Target peptide (SARS-CoV-2 spike, HR2 region): PDVDLGDISGINAS

Ab-14 is the parent antibody, in scFv form: VH, then three GGGGS repeats, then VL. The heavy chain is unchanged in all variants.
VH: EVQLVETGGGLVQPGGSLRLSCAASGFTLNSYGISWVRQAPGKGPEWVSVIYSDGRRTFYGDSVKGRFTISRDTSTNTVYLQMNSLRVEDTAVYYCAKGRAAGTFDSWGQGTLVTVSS
VL: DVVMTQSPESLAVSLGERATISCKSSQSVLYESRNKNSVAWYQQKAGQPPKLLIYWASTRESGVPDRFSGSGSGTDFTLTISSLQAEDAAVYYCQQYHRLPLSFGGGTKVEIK

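The parent was found by panning a naive human phage display library on the peptide. Designed CDR sequences, proposed from the first random library and measured here. Their group label is 14L_GP_HC (GP: Gaussian process model; HC: hill climbing; a sequence that several methods proposed may carry one label only). The scFvs were displayed on barcoded MATa yeast, the peptide on MATalpha yeast. Mating (16 h, 30 °C) was followed by selection of diploids and sequencing of their barcodes. A regression on co-assayed BCL2-family reference pairs converts the normalised counts of each replicate to an apparent Kd. Each pool was mated in six replicate cultures.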

Positions count from residue 1 of the parent VL; Q27I puts I in place of Q. Values are log10 of the apparent Kd in nM; lower means stronger binding. An entry "ND" has no value in the source: the pair was not observed among the diploids in that replicate. This suggests poor binding but is not conclusive.

changes,"log10 Kd, replicates",signal with controls
Q27I/V29E/R34M/W56N/A57G,-0.05 0.03 0.18 0.13 -0.15 0.45,1/18 (4.50)
K24H/S25Q/S26W/Q27P/W56N/A57G/S62V,-0.06 -0.04 -0.02 -0.23 -0.07 0.04,3/18 (2.38)
Q27I/V29Y/R34A/W56E/T59Q,0.18 0.03 -0.09 -0.08 0.10 0.22,3/18 (3.41)
S25V/R34G/N35D/W56N/T59S,1.01 0.78 0.77 1.20 1.59 0.95,0/18
S25F/S33P/N35T/K36Y/W56N,0.39 0.19 0.10 0.03 -0.28 0.18,1/18 (2.99)
L30P/R34E/W56E/T59Q,0.43 0.19 0.32 0.23 0.66 0.19,2/18 (3.16)
S25Q/Q27D/Y31M/W56D,-0.09 -0.25 -0.30 -0.38 -0.42 -0.17,1/18 (2.46)
S25L/S26E/L30H/W56N,-0.10 -0.11 -0.36 -0.20 -0.01 0.01,0/18
Q27I/V29Y/W56E/S62E/S103M,0.26 0.08 0.04 -0.06 -0.02 0.24,1/18 (2.18)
S25M/Y31M/W56D/T59C,0.08 -0.26 -0.19 -0.32 -0.20 -0.05,2/18 (2.75)
S25L/V29Y/L30H/W56G,0.08 -0.15 -0.19 -0.35 -0.21 0.09,1/18 (2.69)
Q27I/V29Y/Y31G/S33K/R34G/W56E,0.65 0.31 0.37 0.49 0.51 0.68,1/18 (2.39)
V29W/R34M/W56G/S62V,0.09 -0.07 -0.14 -0.32 -0.21 0.10,0/18
S25V/V29W/Y31M/W56E/E61C,0.02 -0.10 -0.14 -0.11 -0.17 -0.10,4/18 (2.14)
L30C/Y31F/W56D,0.67 0.33 0.18 0.21 0.19 0.44,1/18 (2.28)
S25L/S26E/Q27M/V29T,0.51 1.57 0.74 1.03 1.42 0.59,0/18
L30K/Y31G/W56D,0.76 0.56 -0.02 0.32 0.39 0.22,0/18
S26D/S28G/V29Q/W56G,-0.02 -0.12 -0.23 -0.24 -0.19 -0.13,0/18
Q27W/W56E,0.52 0.47 0.39 0.23 0.60 0.69,0/18
S25F/S28A/V29F/W56D/S58N,0.21 0.09 0.21 0.58 0.22 0.29,0/18
S25Q/L30G/W56D/S103D,0.69 0.52 0.63 1.00 0.84 0.68,1/18 (2.91)
K24H/Q27D/K36G/W56N/S62A,0.78 0.57 0.55 0.80 0.98 0.55,1/18 (1.23)
S25L/V29T/E32D/R34Q/W56Q,0.28 -0.17 -0.05 -0.03 0.32 0.13,1/18 (2.42)
S25L/Y31F/W56N,-0.34 -0.49 -0.49 -0.59 -0.60 -0.41,0/18
S25L/S26R/V29T/S62E,1.31 1.04 0.26 0.06 0.15 0.44,0/18
V29W/W56G/S62K,-0.34 -0.51 -0.04 -0.18 -0.07 -0.28,0/18
S25L/S26E/V29T/K36Q,0.60 1.08 0.52 0.62 0.74 0.82,0/18
S25D/S26L/N35D/W56H/S62D,0.72 0.35 0.22 0.44 0.28 0.38,3/18 (2.50)
V29D/W56G/Q96A/P101T,ND ND ND ND ND ND,0/18
S25M/V29D/Y31C/W56D,0.42 1.31 0.53 0.26 0.81 0.81,1/18 (2.93)
S25F/K36S/S38R/W56N,0.52 0.58 0.45 0.37 0.48 0.62,3/18 (2.51)
Q27P/L30E/R34H/W56N/E61M,0.78 0.56 0.26 0.56 0.36 0.73,0/18
K24Q/V29G/W56G,0.15 -0.10 -0.02 -0.18 -0.12 0.18,3/18 (2.94)
S26L/V29D/W56H/S62Q,0.32 0.30 0.04 -0.06 0.16 0.24,1/18 (3.06)
S25Q/S28G/V29K/W56D,-0.17 -0.42 -0.31 -0.39 -0.56 -0.25,0/18
S25Q/Y31Q/W56N,0.59 0.32 0.32 0.36 0.29 0.46,1/18 (2.80)
S25Q/Q27E/V29Y/W56E,1.15 2.17 0.43 1.24 0.89 1.11,0/18
S25V/V29E/Y31M/W56E/E61Q,1.75 0.69 0.92 1.04 1.25 1.26,1/18 (2.27)
Q27I/V29Y/R34T/K36T/W56E,0.25 0.52 0.37 0.17 0.10 0.36,0/18
S26G/Q27C/S28G/V29Q/W56G,-0.07 0.06 0.10 -0.23 -0.05 0.05,1/18 (2.23)
S25I/L30K/Y31M/W56D,0.49 0.37 0.30 -0.18 0.14 0.45,0/18
S25L/Q27D/Y31Q/W56D,-0.18 -0.46 -0.47 -0.42 -0.57 -0.34,1/18 (2.81)
S25L/S26Q/V29T/L30K/K36Q,ND ND 1.23 ND 1.90 ND,1/18 (1.70)
K24S/S25F/N35T/W56N,0.23 0.30 0.08 0.23 0.18 0.43,0/18
K24W/S25L/S26M/W56H/T59L/S62D,1.12 0.92 0.96 0.92 0.53 0.61,2/18 (2.55)
K24H/Q27P/V29Y/L30E/W56N,0.40 0.39 0.80 0.25 1.12 0.56,0/18
S26G/S28G/L30D/W56R,0.66 0.63 0.47 0.24 0.95 0.69,0/18
S25T/S26L/W56H/S62D/R99Q,0.25 0.22 0.46 0.20 0.40 0.32,1/18 (1.34)
Y31D/E32Q/W56D,0.44 0.26 0.02 0.50 0.21 0.44,1/18 (4.13)
S25E/W56G,-0.04 -0.23 -0.27 -0.53 -0.12 -0.01,1/18 (2.66)

Excerpt, the final 5 entries:

changes,"log10 Kd, replicates",signal with controls
K24H/Q27P/V29Y/L30E/W56N,0.40 0.39 0.80 0.25 1.12 0.56,0/18
S26G/S28G/L30D/W56R,0.66 0.63 0.47 0.24 0.95 0.69,0/18
S25T/S26L/W56H/S62D/R99Q,0.25 0.22 0.46 0.20 0.40 0.32,1/18 (1.34)
Y31D/E32Q/W56D,0.44 0.26 0.02 0.50 0.21 0.44,1/18 (4.13)
S25E/W56G,-0.04 -0.23 -0.27 -0.53 -0.12 -0.01,1/18 (2.66)

The authors averaged sequences with at least three values out of six and counted those with two or fewer as poor binders. A sequence measured in both rounds can read differently, since the two assays cover different ranges. The parent sequence was in this pool as ten entries: three were never detected, three once, and four in most replicates, with averages from 0.34 to 2.37. As a blank, each scFv also met three strains without target: over all light chain designs, 4% of these pairings were detected, typically at 2.64 and seldom below 1.59. The control count says in how many pairings with the empty strains this scFv gave a signal, with their mean in brackets.